Reference: ChEMBL document CHEMBL4823296, “NMR-Guided Design of Potent and Selective EphA4 Agonistic Ligands” (J Med Chem, 2021)

By UniProt entry, the sequences of proteins in these tests, tags left out.
UniProt P54764, whole entry: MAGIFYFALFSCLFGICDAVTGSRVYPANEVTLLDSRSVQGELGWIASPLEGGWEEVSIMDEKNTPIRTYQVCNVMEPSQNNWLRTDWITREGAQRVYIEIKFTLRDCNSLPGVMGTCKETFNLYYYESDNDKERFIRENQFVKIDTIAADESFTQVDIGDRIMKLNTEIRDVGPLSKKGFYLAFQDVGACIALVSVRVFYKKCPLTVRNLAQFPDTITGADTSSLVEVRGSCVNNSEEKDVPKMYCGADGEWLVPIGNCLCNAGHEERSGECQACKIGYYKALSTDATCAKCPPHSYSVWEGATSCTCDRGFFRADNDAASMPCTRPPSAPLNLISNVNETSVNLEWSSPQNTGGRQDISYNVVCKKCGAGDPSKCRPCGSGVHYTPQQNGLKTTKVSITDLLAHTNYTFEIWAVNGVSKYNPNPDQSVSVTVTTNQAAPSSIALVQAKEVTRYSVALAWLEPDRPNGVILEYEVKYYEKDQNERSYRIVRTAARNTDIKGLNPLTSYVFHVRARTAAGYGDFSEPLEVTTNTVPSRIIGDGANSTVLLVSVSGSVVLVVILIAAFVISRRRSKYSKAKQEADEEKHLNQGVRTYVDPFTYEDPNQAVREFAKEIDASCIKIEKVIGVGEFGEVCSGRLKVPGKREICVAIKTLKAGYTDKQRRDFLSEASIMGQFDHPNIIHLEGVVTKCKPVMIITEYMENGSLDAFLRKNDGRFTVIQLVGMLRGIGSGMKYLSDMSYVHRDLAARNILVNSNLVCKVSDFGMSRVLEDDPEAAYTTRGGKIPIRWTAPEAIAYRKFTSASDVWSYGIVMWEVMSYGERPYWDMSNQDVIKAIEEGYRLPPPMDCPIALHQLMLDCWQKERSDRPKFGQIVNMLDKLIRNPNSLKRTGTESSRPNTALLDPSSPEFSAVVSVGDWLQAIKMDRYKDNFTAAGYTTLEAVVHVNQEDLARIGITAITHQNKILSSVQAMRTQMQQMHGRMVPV

Target: Ephrin type-A receptor 4 (Homo sapiens, UniProt P54764)
Test: Binding affinity to N-terminal His tagged EphA4 LBD (unknown origin) (29 to 209 residues) expressed in Rosetta-Gami B(DE3) cells by isothermal titration calorimetry

Kd: 0.4 µM
SMILES: COc1ccc2[nH]cc(CCNC(=O)[C@H](Cc3ccncc3)NC(=O)[C@H](Cc3ccc(Cl)cc3)NC(=O)[C@H](Cc3c[nH]c4ccc(O)cc34)NC(=O)CCCN)c2c1
